Structures are written as SMILES.

By UniProt entry, the sequences of proteins in these tests, tags left out. Residues count along the entry.
UniProt P47871, 26-477: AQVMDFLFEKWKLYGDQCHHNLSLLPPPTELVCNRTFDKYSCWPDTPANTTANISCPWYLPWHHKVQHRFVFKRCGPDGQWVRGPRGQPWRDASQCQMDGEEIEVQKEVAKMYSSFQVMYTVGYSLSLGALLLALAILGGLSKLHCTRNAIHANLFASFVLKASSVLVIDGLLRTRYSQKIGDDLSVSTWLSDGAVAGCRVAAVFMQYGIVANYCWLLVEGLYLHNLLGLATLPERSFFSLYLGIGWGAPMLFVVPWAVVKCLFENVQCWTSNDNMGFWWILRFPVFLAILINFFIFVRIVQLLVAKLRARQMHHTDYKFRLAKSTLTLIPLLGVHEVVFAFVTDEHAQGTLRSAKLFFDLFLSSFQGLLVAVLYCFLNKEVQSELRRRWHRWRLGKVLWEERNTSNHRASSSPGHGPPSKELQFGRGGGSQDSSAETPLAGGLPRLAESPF

The experiment addresses T1, glucagon receptor (Homo sapiens, UniProt P47871).
T1 construct: expressed in transfected cells; host or cells: Chinese Hamster Ovary cells (CHO-HGR), membranes
Put plainly: glucagon receptor binding assay (125I-glucagon, CHO-HGR membranes). As to conditions: 60 min at room temperature. The protocol:
The affinity for the glucagon receptor of compounds of the present invention is determined by the glucagon receptor binding assay. Membranes were prepared from Chinese Hamster Ovary cells expressing the glucagon receptor (CHO-HGR) by scraping the cells into hypotonic lysis buffer (10 mM Tris, pH 7.4, 2 mM EDTA, 5 mM MgCl2 and 1 mM PMSF) and subjecting the material to Polytron homogenization. Nuclei were removed by a 15-min 800×g centrifugation step conducted at 4° C. Membranes containing the receptor were collected by centrifugation at 15,000×gfor 15 min at 4° C. The membranes were washed once in lysis buffer and suspended in 0.25 M sucrose, 10 mM Tris, 5 mM EDTA, pH 7.4. The membranes were used in ligand binding studies as reported (Yoo-Warren, H., Willse, A. G., Hancock, N., Hull, J., McCaleb, M., and Livingston, J. Regulation of Rat Glucagon Receptor Expression. Biochem. Biophysical Res. Commun. 1994, 205, 347-353). In brief, 10 ug of membrane protein was incubated in 130 μl of binding buffer that consisted of 20 mM Tris, […], 1 mM EDTA, 1 mg/ml BSA, and 1 mg/ml bacitracin. The membrane suspension was placed in each well of a 96-well filtration plate (glass fiber type C, Millipore). […] Following the addition of test compound, 50 μl of ^125 I-glucagon (9 fmol) (NEN) was added to each well. Control wells contained membranes, 0.5% DMSO (solvent for test compounds), radiolabeled glucagon without and with excess native glucagon (1 μM) to establish nonspecific binding. The plates were incubated for 60 min at room temperature, and then filtered on a Mllipore vacuum apparatus. Following a wash step with ice-cold PBS/0.1% BSA, the filters were punched into test tubes, and the membrane bound radioactivity was determined.
For the molecule `CCCc1c(C(C)C)nc(C(C)C)c(C(C)O)c1-c1ccc(F)cc1` (single isomer, unassigned) [Example 103], the IC50 (in general, the point on the concentration scale where inhibition reaches its midpoint) stood at 1900 nM.

In turn, `CCCCCCc1c(C(C)C)nc(C(C)C)c(C(C)O)c1-c1ccc(F)cc1` (single isomer, unassigned) [Example 110, 2,6-Diisopropyl-3-(1-hydroxyethyl)-4-(4-fluorophenyl)-5-hexylpyridine] registered an IC50 of 2000 nM.

Take `CCCc1c(C(C)C)nc(C(C)C)c(C(C)O)c1-c1ccc(F)cc1` (single isomer, unassigned; (+)) [Example 102, (+)-2,6-Diisopropyl-3-(1-hydroxyethyl)-4-(4-fluorophenyl)-5-propyl-pyridine]: the IC50 amounted to 110 nM.

With `CCCc1c(C(C)C)nc(C(C)C)c(C(C)O)c1-c1ccc(F)cc1` (single isomer, unassigned; (+)) [Example 222, (+)-2,6-Diisopropyl-3-(1-hydroxyethyl)-4-(4-fluorophenyl)-5-propyl-pyridine], the IC50 turned out to be 110 nM.

On to `CCCc1c(C(C)C)nc(C(C)C)c(C(C)O)c1-c1ccc(F)cc1` (single isomer, unassigned; (+)) [Example 223, (+)-2,6-Diisopropyl-3-(1-hydroxyethyl)-4-(4-fluorophenyl)-5-propyl-pyridine], for which the IC50 amounted to 110 nM.

`CCCc1c(C(C)C)nc(C(C)C)c(C(C)O)c1-c1ccc(F)cc1` (single isomer, unassigned; (+)) [Example 224, (+)-2,6-Diisopropyl-3-(1-hydroxyethyl)-4-(4-fluorophenyl)-5-propyl-pyridine]: the IC50 was determined as 110 nM.

The values above are taken from US6218431A, “Substituted biphenyls” (Bayer Corporation, priority 1997, dated 2001).
